In paper PMC9229949 (Pharmaceutics, 2022):

Assays:
[1] = Cytotoxicity against J774 cells (CellTiter-Glo); type: cell-based, murine; settings: mouse, J774 macrophage cells, J774 macrophages, CellTiterGlo, at least two experiments
Experimental: In vitro cytotoxicity was assayed against two mammalian cell lineages, J774 (murine macrophages) and HepG2 (human hepatocellular carcinoma). […] Cell cultures from 60 to 80% confluence were trypsinized, washed in complete medium, and 4 × 10^4 cells were plated in 100 µL per well with complete medium in 96-well flat-bottom white plates for 24 h at 37 °C prior to the addition of the compounds. Triplicate aliquots of compound and the reference drugs (stock solution in DMSO) covering 7 different concentrations at 2-fold dilutions were added to the wells, and plates were incubated for 72 h more. After incubation for 72 h at 37 °C, plates were maintained at room temperature, the culture medium was removed, and 100 µL volume of CellTiter-Glo reagent was added to each well. The bioluminescence was measured using a microplate reader Filtermax F5 Multi-Mode instrument (Molecular Devices) and Softmax software. […] The selectivity index (S.I.) was estimated using the IC50s from mammalian cells divided by the IC50 obtained against the asexual blood stage P. falciparum.

[2] = system: P. falciparum W2 (CQ-resistant) asexual blood stages; experiment: In vitro activity against asexual blood stages of P. falciparum, CQ-resistant strain W2 (HRP2 ELISA); type: cell-based; settings: CC50 (J774)/IC50 (W2)
Experimental: The asexual blood stages of CQ-susceptible strain (3D7) and CQ-resistant strain (W2) of P. falciparum were maintained in culture in RPMI-1640 supplemented with 10% human serum (Abcys S.A., Paris, France) and buffered with 25 mM 4-(2-hydroxyethyl)-1-piperazineethanesulfonic acid (HEPES) and 25 mM NaHCO3. Parasites were grown in A-positive human blood (Etablissement Français du Sang, Marseille, France) under controlled atmospheric conditions of 10% O2, 5% CO2 and 85% N2 at 37 °C with a humidity of 95%. […]. The plates were incubated for 72 h at 37 °C in controlled atmosphere. After frozen and thawing the plates, hemolyzed cultures were homogenized by vortexing the plates. The antiparasitic activity was determined using the HRP2 ELISA-based assay Malaria Ag Celisa kit (ref KM2159, Cellabs PTY LDT, Brookvale, Australia). […] IC50s are expressed as means of three to five experiments.

[3] = system: P. falciparum 3D7 (CQ-susceptible) asexual blood stages; experiment: In vitro activity against asexual blood stages of P. falciparum, CQ-susceptible strain 3D7 (HRP2 ELISA); type: cell-based; settings: CC50 (J774)/IC50 (3D7)
Experimental: The plates were incubated for 72 h at 37 °C in controlled atmosphere. After frozen and thawing the plates, hemolyzed cultures were homogenized by vortexing the plates. The antiparasitic activity was determined using the HRP2 ELISA-based assay Malaria Ag Celisa kit (ref KM2159, Cellabs PTY LDT, Brookvale, Australia). […] IC50s are expressed as means of three to five experiments.

COc1cc(NC(C)CCCN)c2ncccc2c1 (stereo not drawn) [Primaquine (PQ), primaquine]
CC50 at 72 h [1]: 36.5 µM
Selectivity Index W2 [2]: 200
Selectivity Index 3D7 [3]: 32
